Experimental data published in PubChem BioAssay AID2716 (Broad Institute, 2010).
The entries are a selection whose mix differs from that of the whole data set. Some salts or complexes appear as unconnected parts, following the source record. The source made the active and inactive calls.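 Rule for the calls: active = every valid replicate shows activation above 250% relative to neutral control wells; inactive = the rest, any valid replicate at or below 250%.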

Assay: restored growth of temperature-sensitive Mot1-301 yeast – S. cerevisiae, ATP luminescence, 38.5C, SUMOylation pathway inhibitor project, primary screen (AID 2716);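 note: OY570 slx delta 5 strain wells were the positive control but not used for scaling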
Details: S. cerevisiae Mot1-301 growth rescue, at 18.8 µM, stronger effect = higher value, percent above DMSO median, 100 means doubled

With O=[N+]([O-])c1cc([N+](=O)[O-])c(OC2CCCCC2O)c([N+](=O)[O-])c1 (stereo unspecified) as the compound, how does the growth rescue read?
Its growth rescue is inactive: -4.35%.

With CCCCCOc1ccc(NP(C)(=O)Oc2ccc(Cl)cc2Cl)cc1 (stereo unspecified) as the compound, how does the growth rescue read?
Its growth rescue is inactive: -9.3%.

With CP(=O)(Nc1ccccc1)Oc1ccc(F)cc1 (stereo unspecified) as the compound, how does the growth rescue read?
Its growth rescue is inactive: 45.8%.

Which growth rescue does the source give for CCN(CC)CCCOC(=O)C(O)(c1ccccc1)C1CCCCC1 (stereo unspecified) here?
Its growth rescue is inactive: -6.94%.

Which growth rescue does the source give for COc1ccc(OP(C)(=O)Nc2ccc(SC(F)(F)F)cc2)cc1 (stereo unspecified) here?
The growth rescue was inactive: 5.72%.

With CCOC(=O)c1ccc(NP(C)(=O)Oc2ccc(F)cc2)cc1 (stereo unspecified) as the compound, how does the growth rescue read?
Its growth rescue is inactive: -1.14%.

For COc1ccc2c(c1O)-c1c(O)c(OC)cc3c1[C@H](C2)[N+](C)(C)CC3.O=[N+]([O-])c1cc([N+](=O)[O-])c([O-])c([N+](=O)[O-])c1[O-], which growth rescue is on record?
The growth rescue was inactive: -0.016%.

For O=C(OCCN1CCN(CCOCc2ccccc2)CC1)C(O)(c1ccccc1)c1ccccc1, which growth rescue is on record?
The growth rescue was inactive: -22.4%.

For O=C(OC1CN2CCC1CC2)c1ccc([N+](=O)[O-])cc1 (stereo unspecified), which growth rescue is on record?
Its growth rescue is inactive: -0.686%.

With CC(C)c1ccc(OP(C)(=O)Nc2ccc(SC(F)(F)F)cc2)cc1 (stereo unspecified) as the compound, how does the growth rescue read?
The growth rescue was inactive: -14%.

Which growth rescue does the source give for CP(=O)(Nc1ccccc1F)Oc1ccccc1 (stereo unspecified) here?
The growth rescue was inactive: -8.27%.

For Cc1ccccc1NP(C)(=O)Nc1ccccc1C, which growth rescue is on record?
The growth rescue was inactive: -0.216%.

For CP(=O)(Nc1ccc2c(c1)OCCO2)Oc1ccccc1 (stereo unspecified), which growth rescue is on record?
Its growth rescue is inactive: -6.67%.

With CCOP(C)(=S)SCC(=O)NC(C)(CC)C(=O)O (stereo unspecified) as the compound, how does the growth rescue read?
The growth rescue was inactive: 5.82%.

For CP(=O)(Nc1ccc(SC(F)(F)F)cc1)Oc1ccc(F)cc1 (stereo unspecified), which growth rescue is on record?
Its growth rescue is inactive: 86.5%.

For O=[N+]([O-])c1cc([N+](=O)[O-])c(NCC2CCS(=O)(=O)C2)c([N+](=O)[O-])c1 (stereo unspecified), which growth rescue is on record?
The growth rescue was inactive: -7.29%.

Which growth rescue does the source give for O=[N+]([O-])c1ccc(OP2(=O)COCCO2)cc1 (stereo unspecified) here?
The growth rescue was inactive: -1.31%.

Which growth rescue does the source give for COc1ccc(NP(C)(=O)Oc2ccccc2OC)cc1 (stereo unspecified) here?
Its growth rescue is inactive: 169%.

Which growth rescue does the source give for CN(C)CCOC(=O)C(O)(c1ccccc1)C1CCCCC1 (stereo unspecified) here?
The growth rescue was inactive: -11.5%.

For COc1ccc(OP(C)(=O)Nc2cccc(Br)c2)cc1 (stereo unspecified), which growth rescue is on record?
The growth rescue was inactive: -22.2%.

With CP(=O)(OC12CC3CC(CC(C3)C1)C2)OC12CC3CC(CC(C3)C1)C2 as the compound, how does the growth rescue read?
Its growth rescue is inactive: 61%.

For CCOC(=O)c1ccc(NP(C)(=O)Oc2ccc(Cl)cc2)cc1 (stereo unspecified), which growth rescue is on record?
The growth rescue was inactive: 10.1%.

With Nc1ccc2c(ccc3cccnc32)n1.O=[N+]([O-])c1cc([N+](=O)[O-])c(O)c([N+](=O)[O-])c1 as the compound, how does the growth rescue read?
Its growth rescue is inactive: -11.4%.

Which growth rescue does the source give for CN(C)C(=O)c1c([N+](=O)[O-])cc([N+](=O)[O-])cc1[N+](=O)[O-] here?
Its growth rescue is inactive: -14.1%.

For CP(=O)(Nc1ccc(Cl)cc1)Oc1ccc(F)cc1 (stereo unspecified), which growth rescue is on record?
Its growth rescue is inactive: -1.29%.

With CC(C)(C)c1ccc(OP(C)(=O)O)cc1 as the compound, how does the growth rescue read?
Its growth rescue is inactive: 1.56%.

For COc1ccccc1OP(C)(=O)Nc1ccccc1Br (stereo unspecified), which growth rescue is on record?
The growth rescue was inactive: -21.3%.

With CCc1ccc(OP(C)(=O)Nc2cccnc2)cc1 (stereo unspecified) as the compound, how does the growth rescue read?
Its growth rescue is inactive: 23.4%.

With CP(=O)(Oc1ccccc1)N1CCOC1=O (stereo unspecified) as the compound, how does the growth rescue read?
Its growth rescue is inactive: 28.2%.

With O=C(OCCCN1CCCC1)C(O)(c1ccccc1)C1CCCCC1 (stereo unspecified) as the compound, how does the growth rescue read?
Its growth rescue is inactive: 23.1%.

Which growth rescue does the source give for COc1ccccc1OP(C)(=O)Nc1c(C)n(C)n(-c2ccccc2)c1=O (stereo unspecified) here?
Its growth rescue is inactive: -1.71%.

With COc1ccc(OP(C)(=O)Nc2ccc(Br)cc2)cc1 (stereo unspecified) as the compound, how does the growth rescue read?
Its growth rescue is inactive: -1.82%.

With CCN(CC)CC(O)COC(=O)C(O)(c1ccccc1)C1CCCCC1 (stereo unspecified) as the compound, how does the growth rescue read?
Its growth rescue is inactive: 7.84%.

Which growth rescue does the source give for CCc1ccc(OP(C)(=O)O)cc1 here?
Its growth rescue is inactive: -0.825%.

With COc1ccccc1OP(C)(=O)Nc1ccc(C)cc1C (stereo unspecified) as the compound, how does the growth rescue read?
The growth rescue was inactive: 33.7%.

Which growth rescue does the source give for CP(=O)(Nc1ccccn1)Oc1ccccc1 (stereo unspecified) here?
The growth rescue was inactive: 14.1%.

Which growth rescue does the source give for O=[N+]([O-])c1cc([N+](=O)[O-])c(Nc2ccccn2)c([N+](=O)[O-])c1 here?
The growth rescue was inactive: -24.9%.

Which growth rescue does the source give for Cc1c(NP(C)(=O)Oc2ccc(C(C)C)cc2)c(=O)n(-c2ccccc2)n1C (stereo unspecified) here?
Its growth rescue is inactive: -6.48%.

Which growth rescue does the source give for CN(C)CCOC(=O)C(O)(c1ccccc1)C1CCCC1 (stereo unspecified) here?
The growth rescue was inactive: 1.72%.

For COc1ccc(OP(C)(=O)Nc2ccccn2)cc1 (stereo unspecified), which growth rescue is on record?
Its growth rescue is inactive: -5.25%.

For COc1ccccc1OP(C)(=O)Nc1ccc(Br)cc1 (stereo unspecified), which growth rescue is on record?
The growth rescue was inactive: -10.7%.

For CP(=O)(OCCOc1ccccc1)OCCOc1ccccc1, which growth rescue is on record?
Its growth rescue is inactive: 21.1%.

With Cc1nc2ccc3ccccc3c2o1.O=[N+]([O-])c1cc([N+](=O)[O-])c(O)c([N+](=O)[O-])c1 as the compound, how does the growth rescue read?
Its growth rescue is inactive: 58.7%.

With COc1ccc(OP(C)(=O)Nc2ccccc2Br)cc1 (stereo unspecified) as the compound, how does the growth rescue read?
Its growth rescue is inactive: 242%.

For COc1ccccc1OP(C)(=O)Nc1ccc(C)c(C)c1 (stereo unspecified), which growth rescue is on record?
The growth rescue was active: 330%.

For Cc1cc(C)cc(OP(C)(=O)Nc2cccc(C(F)(F)F)c2)c1 (stereo unspecified), which growth rescue is on record?
Its growth rescue is inactive: -6.7%.

Which growth rescue does the source give for COc1ccccc1OP(C)(=O)Nc1cc(Cl)ccc1C (stereo unspecified) here?
Its growth rescue is inactive: 5.5%.

With Cc1cc(C)cc(OP(C)(N)=O)c1 (stereo unspecified) as the compound, how does the growth rescue read?
The growth rescue was inactive: 274%.

Which growth rescue does the source give for CCOC(=O)c1ccc(NP(C)(=O)Oc2ccccc2)cc1 (stereo unspecified) here?
Its growth rescue is inactive: 4.08%.

Which growth rescue does the source give for Cc1ccc(NP(C)(=O)Oc2ccccc2)c(C)c1 (stereo unspecified) here?
The growth rescue was inactive: -11.1%.

For COc1ccccc1OP(C)(=O)Nc1ccc(C)cc1 (stereo unspecified), which growth rescue is on record?
Its growth rescue is inactive: -4.36%.

For Cc1cccc(C)c1OP(C)(N)=O (stereo unspecified), which growth rescue is on record?
Its growth rescue is inactive: -12.8%.

With CC(C)(C)c1ccc(OP(C)(=O)Nc2ccc(SC(F)(F)F)cc2)cc1 (stereo unspecified) as the compound, how does the growth rescue read?
The growth rescue was inactive: 1.55%.

Which growth rescue does the source give for O=[N+]([O-])c1ccc2c(c1)C=Nc1ccccc1O2 here?
Its growth rescue is inactive: -36.6%.

With O=[N+]([O-])c1cc([N+](=O)[O-])c(Nc2cccnc2)c([N+](=O)[O-])c1 as the compound, how does the growth rescue read?
Its growth rescue is inactive: 89.7%.

With CCN(CC)CCCOC(=O)C(O)(c1ccccc1)c1ccccc1 as the compound, how does the growth rescue read?
The growth rescue was inactive: -9.97%.

Which growth rescue does the source give for CP(=O)(Nc1ccccn1)Oc1ccc(Cl)cc1 (stereo unspecified) here?
The growth rescue was inactive: -30.8%.

For CCOP(C)(=S)SCC(=O)NC(C)C(=O)O (stereo unspecified), which growth rescue is on record?
The growth rescue was inactive: -5.97%.

With CCOC(=O)c1ccc(NP(C)(=O)Oc2ccc(OC)cc2)cc1 (stereo unspecified) as the compound, how does the growth rescue read?
The growth rescue was inactive: 6.19%.

For O=[N+]([O-])c1cc([N+](=O)[O-])c(O)c([N+](=O)[O-])c1.c1ccc(Oc2ccncc2)cc1, which growth rescue is on record?
The growth rescue was inactive: 112%.

With Cc1cc(C)cc(OP(C)(=O)Nc2ccc(SC(F)(F)F)cc2)c1 (stereo unspecified) as the compound, how does the growth rescue read?
The growth rescue was inactive: 14.6%.
